In the NIST ThermoML archive (doi:10.1021/je500996n):
Numbers after ± are expanded uncertainties.

Test: xn = mol fraction of the nth substance listed
Details: 318.15 K, 100 kPa, Liquid, Vibrating tube method

CC1(C)COC(=O)[C@@H]1O [D-pantolactone] + CCOC(C)=O
Details	mass density [kg/m3]
x1 = 0.1189	917.2 ± 3.9
x1 = 0.2551	956.5 ± 4.8
x1 = 0.3447	980 ± 5.3
x1 = 0.4229	999.4 ± 5.5
x1 = 0.4849	1010.7 ± 5.9
x1 = 0.5343	1024.5 ± 7.2

CC1(C)COC(=O)[C@@H]1O [D-pantolactone] + CO
Details	mass density [kg/m3]
x1 = 0.0696	854.4 ± 4
x1 = 0.1462	912 ± 5.3
x1 = 0.2135	948.1 ± 5.7
x1 = 0.2717	974.8 ± 5.5
x1 = 0.387	1011.8 ± 4.6
x1 = 0.4064	1014.6 ± 4.7

CC1(C)COC(=O)[C@@H]1O [D-pantolactone] + CCO
Details	mass density [kg/m3]
x1 = 0.072	827.3 ± 3.7
x1 = 0.1798	885.4 ± 4.9
x1 = 0.3372	952.4 ± 6.9
x1 = 0.3828	972.3 ± 6.6
x1 = 0.4368	987.3 ± 6.4
x1 = 0.4785	1000.1 ± 7.1

CC1(C)COC(=O)[C@@H]1O [D-pantolactone] + O
Details	mass density [kg/m3]
x1 = 0.0329	1024.6 ± 4.2
x1 = 0.1193	1065.2 ± 4.7
x1 = 0.1724	1079 ± 4.6
x1 = 0.2107	1083.7 ± 4.5
x1 = 0.2588	1090.5 ± 4.5
x1 = 0.2897	1092.8 ± 4.4
x1 = 0.3372	1095.6 ± 4.5
